# Source: PubChem
# CASP6 VEID inh: human caspase-6 inhibitors, primary screen, biochemical, VEID-R110 fluorescence, single point, set 2 | P55212 | purified caspase-6, Z-VEID-R110 cleavage fluorescence | inhibition, % at 12.5 µM | 350,000 compounds, 0.53% hits;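 active = mean inhibition across replicates at least about 35%, with every replicate also reaching that limit, limit read from the data; inconclusive = only one of the two criteria met; inactive = neither criterion met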;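 also: 0% = median of neutral control wells and 100% = no fluorescence left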
# RAD52 anneal inh: RAD52 DNA annealing inhibitors, primary screen, biochemical, FRET, single point, set 2. recombinant RAD52 DNA annealing, FRET fluorescence. 360,000 compounds, 0.46% hits. AID 651710, 2012. inhibition, % at 18.7 µM;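 active = every replicate showing at least 50% inhibition; inconclusive = mean inhibition at least 50% but not in every replicate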
# UUG fidelity: modulators of start codon recognition fidelity in yeast; S. cerevisiae UUG-firefly luciferase reporter, luminescence/redox ratio; AID 602363; 350,000 tested, 0.13% active; activity score, % at 18.7 µM;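 active = replicate mean at a twofold rise or more, about +100% in these data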;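 also: firefly luciferase made from a UUG start codon reports start codon fidelity; reporter light over untreated wells divided by growth signal over untreated wells; some hits fall short of that in this replicate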
# INS-1E GSIS act: GLuc luminescence reporter in INS-1E cells, primary screen for activators of glucose-dependent secretion of insulin. 370,000 compounds, 0.61% hits. INS-1E GLuc reporter insulin secretion, 2-3 h. activation, % at 16.6 µM;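 active = lowest replicate activation of at least 40%, so every replicate reaches that level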;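 also: 0% = median of neutral control wells and 100% = median of IBMX positive control wells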
# RAD54 inh: inhibitors of human RAD54 branch migration, primary screen, biochemical, fluorescence, single point; DNA repair and recombination protein RAD54-like (Homo sapiens), Q92698; RAD54 Holliday junction branch migration, FAM/BHQ fluorescence; inhibition, % at 10.4 µM; 360,000 compounds, 0.14% hits;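 active = mean normalized replicate activity at least 40 and at least half of replicates scoring 40 or more; inconclusive = only one of the two criteria met; inactive = mean below 40 and under half of replicates reaching 40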;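 also: 0% = median of neutral control wells and 100% = median of positive control wells; inhibitors cause a drop in the FAM fluorescence signal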
# PglD DTNB: C. jejuni PglD acetyltransferase inhibitors, primary screen, biochemical, DTNB colorimetric, single point | UDP-N-acetylbacillosamine N-acetyltransferase PglD (Campylobacter jejuni) | 360,000 compounds, 0.098% hits | purified PglD enzyme, DTNB colorimetric CoA detection | inhibition, % at 12.5 µM | AID 602405, 2012; in the data active = inhibition above about 16%, passing the limit was not always enough; inconclusive = no clear call, values can overlap the other calls
# DNA binding: DNA binding of candidate compounds, dose response, artefact control for RAD54 inhibitor project, biochemical, fluorescence polarization, cherry-pick; AC50, µM (highest dose often 35 µM), inactives show at the top dose activity change, negative = DNA binding; Acridine orange-DNA displacement, 20 min; 460 compounds, 8% hits; shares compounds with RAD54 inh; AID 651673, 2012;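 active = signal drop giving an AC50 within twice the top valid tested concentration of each sample, actives reach about 35 µM in these data; inactive = activity opposite to expected, plus the rest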;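 also: polarization loss reports compound binding to salmon sperm DNA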
# Active calls of the source: *; ? = inconclusive; . = no result given. Hits are enriched below; roughly 1.5% of the tested compounds scored in any of these assays.
SMILES,CASP6 VEID inh,RAD52 anneal inh,UUG fidelity,INS-1E GSIS act,RAD54 inh,PglD DTNB,DNA binding
C[C@H]1CN([C@@H](C)CO)C(=O)Cc2cc(NC(=O)CCC(F)(F)F)ccc2O[C@@H]1CN(C)Cc1ccc(C(=O)O)cc1,2,-2,-9,11,3,10,.
CCC(=O)N[C@H]1CC[C@H](CCNC(=O)Nc2ccc(C(F)(F)F)cc2)O[C@H]1CO,1,18,21,-21,4,8,.
CC1CCCCN1CCNC(=O)c1cc2c(=O)n(C)c3ccccc3c2n1C (configuration not stated),-36,-2,-6,5,57*,4,-23%
O=C(O)CSC(C(=O)Nc1ccc(Br)cc1)c1ccc(Cl)cc1 (configuration not stated),1,-10,.,-10,.,.,.
Cc1ccc2[nH]c3c(NCCN4CCOCC4)ncnc3c2c1,.,.,-19,.,14,-29,.
Clc1ccc2[nH]c3c(NCCCN4CCOCC4)ncnc3c2c1,.,.,0,.,?,5,-1%
COc1cc(NC(=O)c2cccnc2Sc2ccc(C)c(C)c2)cc(OC)c1OC,.,.,6,-15,?,-9,-3%
COc1ccc(S(=O)(=O)Nc2ccc3c(c2)CC(=O)N([C@@H](C)CO)C[C@@H](C)[C@H](CN(C)S(=O)(=O)c2cccs2)O3)cc1,-1,9,3,-18,-4,-1,.
CCOc1ncccc1C(=O)N1CCN(S(=O)(=O)c2cccs2)CC1,0,-1,-10,25,-2,5,.
COc1ccccc1Nc1c2ccccc2nc2ccccc12,2,49,-9,13,59*,-5,3%
COc1ccccc1Nc1nc(-c2ccccc2)nc2ccccc12,2,-12,.,2,.,.,.
CN1CCc2[nH]c3ccc(C(=O)NN)cc3c2C1,.,.,-6,.,67*,-1,3%
NC1CCN(c2c(F)cc3c(=O)c(C(=O)O)cn(C4CC4)c3c2Cl)C1 (configuration not stated),-2,-10,-6,7,?,8,8%
CO[C@@H]1CN(C)C(=O)c2ccc(NC(=O)C3CC3)cc2OC[C@@H](C)N(C(=O)Nc2ccccc2F)C[C@H]1C,1,-3,.,-5,-7,0,.
O=C(O)CCNc1nc(-c2ccccc2)nc2ccccc12,.,.,-5,.,3,0,.
Cc1cccc(-c2nc(NCCCN3CCOCC3)c3ccccc3n2)c1,.,.,-9,.,31,-4,.
CN(C)CCCNc1nc(-c2ccc(Cl)cc2)nc2ccccc12,-13,50*,-6,13,71*,-1,-18%
c1ccc(-c2nc(NCCCN3CCOCC3)c3ccccc3n2)cc1,.,.,-11,-5,?,3,6%
Cc1ccc(-c2nc(NCCCO)c3ccccc3n2)cc1,-5,-6,-16,.,?,-4,-2%
COc1cccc(S(=O)(=O)N2CCOCC2)c1,.,.,-18,.,-11,1,.
CCCn1nnc(NC(=O)c2ccc(-c3cccc(Cl)c3)o2)n1,.,.,12,.,2,-3,.
Cn1c(NCCN2CCCC2)nc2cc(-c3ccsc3)sc2c1=O,-18,-18,.,0,58*,1,-3%
COCCNc1nc2cc(-c3ccsc3)sc2c(=O)n1C,2,3,-10,6,-13,-5,.
CN(C)CCCNc1nc2cc(-c3ccc(C(=O)N4CCN(C)CC4)cc3)sc2c(=O)n1C,-47,75*,-16,-5,?,0,-16%
COc1cccc(CNc2nc3cc(-c4ccc(C(=O)N5CCN(C)CC5)cc4)sc3c(=O)n2C)c1,-11,20,14,2,18,1,.

# Two entries picked at random from the list so far:
SMILES,CASP6 VEID inh,RAD52 anneal inh,UUG fidelity,INS-1E GSIS act,RAD54 inh,PglD DTNB,DNA binding
COc1ccccc1Nc1nc(-c2ccccc2)nc2ccccc12,2,-12,.,2,.,.,.
CN1CCc2[nH]c3ccc(C(=O)NN)cc3c2C1,.,.,-6,.,67*,-1,3%

# A draw from above in order of count of non-hydrogen atoms, highest first.
SMILES,CASP6 VEID inh,RAD52 anneal inh,UUG fidelity,INS-1E GSIS act,RAD54 inh,PglD DTNB,DNA binding
Cc1cccc(-c2nc(NCCCN3CCOCC3)c3ccccc3n2)c1,.,.,-9,.,31,-4,.
Cc1ccc2[nH]c3c(NCCN4CCOCC4)ncnc3c2c1,.,.,-19,.,14,-29,.
COc1cccc(S(=O)(=O)N2CCOCC2)c1,.,.,-18,.,-11,1,.

# Continued.
SMILES,CASP6 VEID inh,RAD52 anneal inh,UUG fidelity,INS-1E GSIS act,RAD54 inh,PglD DTNB,DNA binding
CCCCOC(=O)Nc1ccc(S(=O)(=O)Nc2nccs2)cc1,-2,-18,.,.,.,.,.
CCN(CC)S(=O)(=O)c1ccc(O)c(NC(=O)c2ccc(N3CCOCC3)c([N+](=O)[O-])c2)c1,-2,1,-6,16,1,2,.
Cc1ccc2nc3c(c(N)c2c1)CCN3c1ccccc1,.,.,-6,.,53*,2,-13%
COc1nc(NCCN2CCOCC2)nc(Nc2ccc([N+](=O)[O-])cc2)n1,.,.,.,-5,.,.,.
C[C@@H]1CCCCO[C@@H](CN(C)S(=O)(=O)c2ccc(F)cc2)[C@@H](C)CN([C@H](C)CO)C(=O)c2cc(NC(=O)NC3CCCCC3)ccc2O1,-3,-16,-6,-15,4,2,.
COc1ccc(-c2cc(C(=O)O)c3c(C)nn(-c4ccccn4)c3n2)cc1,.,.,.,-4,.,.,.
CCOC(=O)c1cc(-c2ccncc2)nc2c1c(C)nn2-c1ccccn1,.,.,-9,66*,65*,-1,-8%
Cn1nc(-c2ccccc2)cc1NS(=O)(=O)c1ccc(C#N)cc1,-5,-7,-15,26,?,1,-8%
COC(=O)c1cccc(C(=O)N2CCC(CO)(CCc3ccccc3)CC2)c1,-1,-17,-6,-8,-1,11,.
CN(C(=O)CN1C(=O)S/C(=C\c2ccccc2Cl)C1=O)C1CCS(=O)(=O)C1 (configuration not stated),-4,0,-17,-10,-8,0,.
O=C(Nc1cccc(Cl)c1)c1cc(S(=O)(=O)N2CCOCC2)cs1,7,-9,-7,.,50*,-1,-12%
CNC(C)C#Cc1ccc2oc3cccc(OC)c3c(=O)c2c1 (configuration not stated),-1,-5,-10,8,?,-2,-14%
CNC(C)C#Cc1ccc2oc3cc(C)c(C)cc3c(=O)c2c1 (configuration not stated),-4,-30,-24,.,-4,4,.
CN(C)C(CNC(=O)CCCN1C(=O)c2cccc3cccc(c23)C1=O)c1ccccc1 (configuration not stated),-3,18,2,3,57*,-5,1%
O=C(CCCN1C(=O)c2cccc3cccc(c23)C1=O)NCc1ccco1,5,-15,.,-13,.,.,.
Cc1ccc(C)c(N2CCN(C(=S)Nc3ccc4nc(N5CCN(C)CC5)cc(C)c4c3)CC2)c1,-25,11,-19,12,?,-5,5%
Cc1ccc(C)c(N2CCN(C(=S)Nc3ccc4nc(N5CCOCC5)cc(C)c4c3)CC2)c1,.,.,-24,-18,1,7,.
CCNc1nc(SCC(N)=O)nc2sc3c(c12)CCN(C)C3,-13,4,2,14,8,-2,.

# INS-1E GSIS act, entries above that show a hit.
canonical_smiles	CASP6 VEID inh	RAD52 anneal inh	UUG fidelity	INS-1E GSIS act	PglD DTNB	DNA binding
CCOC(=O)c1cc(-c2ccncc2)nc2c1c(C)nn2-c1ccccn1	.	.	-9	66*	-1	-8%
